The values below are quoted from earlier work in publication PMC3654037.

Amino acid sequences for entries named in this document (tags omitted). Residues count along the entry.
UniProt Q9NQS3, 58-404: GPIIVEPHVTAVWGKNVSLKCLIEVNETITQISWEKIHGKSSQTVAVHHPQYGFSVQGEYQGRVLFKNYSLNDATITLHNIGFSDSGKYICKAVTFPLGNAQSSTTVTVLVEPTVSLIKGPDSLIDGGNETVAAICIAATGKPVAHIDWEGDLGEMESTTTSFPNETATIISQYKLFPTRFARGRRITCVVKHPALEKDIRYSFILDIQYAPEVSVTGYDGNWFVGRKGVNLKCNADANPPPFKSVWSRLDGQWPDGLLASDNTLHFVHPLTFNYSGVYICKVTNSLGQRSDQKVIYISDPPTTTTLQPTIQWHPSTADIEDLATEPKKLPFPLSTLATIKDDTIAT

For the series, the target named is nectin-3 (Homo sapiens) (UniProt Q9NQS3).

For nectin-3 (from UniProt Q9NQS3), the Kd is 228 µM.
